Test results from PubChem BioAssay AID588391 (Broad Institute, 2011).
This is a selection; strong and weak results do not stand in their true shares. Active and inactive are the calls of the source.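 The calls were made as follows: active = mean inhibition across replicates of 30% or more, whatever share of single replicates reach that level; inconclusive = mean inhibition below 30% while every single replicate reaches 30%; inactive = the rest.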

Amino acid sequences for entries named in this document (tags omitted). A change or cut given only in a name is not applied to a line headed by its entry.
UniProt P07237: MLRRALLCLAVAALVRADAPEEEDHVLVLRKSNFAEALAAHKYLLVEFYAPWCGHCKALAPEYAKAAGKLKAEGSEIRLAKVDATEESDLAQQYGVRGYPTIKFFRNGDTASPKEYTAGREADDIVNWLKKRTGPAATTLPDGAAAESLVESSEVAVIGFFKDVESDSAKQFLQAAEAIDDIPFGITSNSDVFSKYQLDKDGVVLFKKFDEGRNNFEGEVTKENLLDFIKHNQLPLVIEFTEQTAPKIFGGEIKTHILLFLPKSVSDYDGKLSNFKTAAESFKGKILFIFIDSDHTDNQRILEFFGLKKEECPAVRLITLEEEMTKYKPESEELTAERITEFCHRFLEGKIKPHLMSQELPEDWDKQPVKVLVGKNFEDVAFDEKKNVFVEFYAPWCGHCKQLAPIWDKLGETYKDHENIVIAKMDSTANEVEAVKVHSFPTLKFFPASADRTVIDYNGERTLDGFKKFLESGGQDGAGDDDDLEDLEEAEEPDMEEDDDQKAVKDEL

Biological target: Protein disulfide-isomerase (Homo sapiens) (UniProt P07237)
Experiment: inhibitors of human PDI, primary screen, biochemical, turbidity, single point, plate reader (AID 588391);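 also: absorbance from insulin aggregation driven by PDI reduction with DTT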
Details: PDI insulin aggregation turbidity, A650, 90 min; at 10 µM; stronger effect = higher value

| Structure (SMILES) | inhibition |
| --- | --- |
| O=P1(Nc2nc3ccc(Cl)cc3s2)COc2ccccc2O1 (stereo unspecified) | inactive: -2.77% |
| CCOc1ccc(C2=NCC(CBr)S2)cc1 (stereo unspecified) | inactive: -2.3% |
| CC(C)(C)C(=O)NC(Sc1ccccc1)C(Cl)(Cl)Cl (stereo unspecified) | inactive: 0.519% |
| CCc1cc(O)c([N+](=O)[O-])c(C)c1[N+](=O)[O-] | inactive: -6.04% |
| Cc1ccccc1CN(C)C(=O)COC(=O)C(O)(c1ccccc1)c1ccccc1 | inactive: -6.45% |
| C[C@@H]1C=CCP(=O)(Oc2ccccc2)O1 (stereo partly specified) | inactive: -2.89% |
| C[C@H]1OP(=O)(Oc2ccccc2)C[C@@H]2O[C@@H]21 (stereo partly specified) | inactive: -2.46% |
| N#C/C(=C\c1ccc(N(CCBr)CCBr)cc1)C(N)=O | inactive: 5.82% |
| CC(=O)c1ccc(N2CC2c2ccncc2)cc1 (stereo unspecified) | inactive: -6.83% |
| COC(=O)C1(C)COP(=O)(NCc2ccccc2)OC1 (stereo unspecified) | inactive: -0.408% |
| CC(=O)Nc1ccc([As](=O)(O)O)c(O)c1 | inactive: 10.1% |
| CC(=O)Nc1ccc(Oc2c([N+](=O)[O-])cc([N+](=O)[O-])cc2[N+](=O)[O-])cc1 | inactive: 6.93% |
| c1ccc(-c2nn[nH]n2)c(-c2nn[nH]n2)c1 | inactive: 5.07% |
| Cc1ccc(NP(=O)(Oc2cccc(C)c2)Oc2cccc(C)c2)nc1 | inactive: 10.7% |
| O=C(NC1CCS(=O)(=O)C1)NP(=S)(Oc1ccccc1)Oc1ccccc1 (stereo unspecified) | inactive: 3.21% |
| CCNC(=S)/N=C(\N)N[N+](=O)[O-] | inactive: -0.221% |
| O=P1(N(CCCl)CCCl)OCCC2CCCCN21 (stereo unspecified) | inactive: -2.36% |
| O=C(OC1CN2CCC1CC2)c1ccccc1 (stereo unspecified) | inactive: -3.5% |
| CCC(=O)N1C2C3N(C(=O)CC)C1C1N(C(=O)CC)C(C(N1C(=O)CC)N3C(=O)CC)N2C(=O)CC | inactive: 0.891% |
| COC(=O)c1cc2c(s1)N=C(c1ccccc1)N(C)P2(=O)N1CCOCC1 (stereo unspecified) | inactive: 0.049% |
| CC(=O)NC(SC(=S)N(CC(C)C)CC(C)C)C(Cl)(Cl)Cl (stereo unspecified) | inactive: -3.61% |
| Cc1ccc(OP(=O)(Nc2ccccn2)Oc2ccc(C)cc2)cc1 | inactive: -1.94% |
| Cc1ccccc1OP(=O)(Nc1ccccn1)Oc1ccccc1C | inactive: -6.26% |
| CC(NC(=O)COC(=O)C(O)(c1ccccc1)c1ccccc1)c1ccccc1 (stereo unspecified) | inactive: -0.209% |
| CN(C)C(=O)Oc1noc2ccccc12 | inactive: 4.03% |
| O=c1c2cc([N+](=O)[O-])ccc2[nH]c2c([N+](=O)[O-])cc([N+](=O)[O-])cc12 | inactive: 17.5% |

| Structure (SMILES) | inhibition |
| --- | --- |
| CN(C)C1(CNC(=O)c2ccc(Cl)c(S(N)(=O)=O)c2)CCCCC1 | inactive: 1.46% |
| O=P(Nc1ccccn1)(c1ccc(Br)cc1)c1ccc(Br)cc1 | inactive: -6.03% |
| COc1ccc(N)c([N+](=O)[O-])c1[N+](=O)[O-] | inactive: -4.24% |
| O=P(Nc1nc2ccccc2s1)(c1ccccc1)c1ccccc1 | inactive: -0.197% |
| C[C@H]1OP(=O)(Oc2ccccc2)[C@H](O)[C@H](O)[C@H]1N=[N+]=[N-] (stereo partly specified) | inactive: -0.386% |
| O=[As](O)(c1ccccc1)c1ccc(O)cc1 | inactive: 2.48% |
| CC(=O)NC(SC(=S)N(C)C)C(Cl)(Cl)Cl (stereo unspecified) | inactive: 0.0515% |
| O=[N+]([O-])c1ncn(CCn2cnc([N+](=O)[O-])n2)n1 | inactive: -8.8% |
| O=[N+]([O-])c1ccc(O)c(/C=N/Nc2ccc([N+](=O)[O-])cc2[N+](=O)[O-])c1 | inactive: -5.98% |
| O=C(OC1CN2CCC1CC2)c1cccc(Cl)c1 (stereo unspecified) | inactive: 10.6% |
| Nc1ccc([As](=O)(O)c2ccc([N+](=O)[O-])cc2)cc1 | inactive: 0.923% |
| C(Cc1nn[nH]n1)Cc1nn[nH]n1 | inactive: 15.7% |
| O=P(Nc1nccs1)(c1ccccc1)c1ccccc1 | inactive: 2.26% |
| CC(C)C(=O)NC(Sc1ccccc1)C(Cl)(Cl)Cl (stereo unspecified) | inactive: 1.69% |
| c1nnnn1CCn1cnnn1 | inactive: -0.601% |
| COc1ccc(C2=NCC(CBr)S2)cc1 (stereo unspecified) | inactive: 14.3% |
| Cc1ccc(NP(=O)(Oc2ccccc2)Oc2ccccc2)nc1 | inactive: 9.42% |
| O=[N+]([O-])c1cc([N+](=O)[O-])c(CCNc2ccccc2)c([N+](=O)[O-])c1 | inactive: -2.09% |
| CCc1nc2c(n1)c1c(non1O)c1c2no[n+]1[O-] | inactive: 2.56% |
| CC(=O)N1C2C3N(C(C)=O)C1C1N(C(C)=O)C(C(N1C(C)=O)N3C(C)=O)N2C(C)=O | inactive: -0.467% |
| O=[N+]([O-])c1cccc2n[nH]nc12 | inactive: 3.56% |
| CCN(/C(=N/P(=O)(N1CCOCC1)N1CCOCC1)N1CCOCC1)c1ccc(OC)cc1 | inactive: -0.431% |
| Nc1ccc([As](=O)(O)c2ccc(N)cc2)cc1 | inactive: 20.6% |
| C[N+]1=C2C=CC=CC=C2SC12C([N+](=O)[O-])=CC([N+](=O)[O-])=C[C-]2[N+](=O)[O-] (stereo unspecified) | inactive: -5.45% |
| c1cc(-c2nn[nH]n2)ccc1-c1nn[nH]n1 | inactive: 1.39% |
| CC1CCN(C(=O)Oc2c(Cl)cc(Cl)c3cccnc23)CC1 | inactive: 4.17% |

| Structure (SMILES) | inhibition |
| --- | --- |
| CC(C)=N/N=C(\N)N[N+](=O)[O-] | inactive: 4% |
| CC(C)c1nc(Nc2ccccc2)n(P(=O)(N(C)C)N(C)C)n1 | inactive: -3.48% |
| CN(C)C(=O)OCCc1n(C)cc[n+]1C | inactive: 20.2% |
| O=P1(N(CCCl)CCCl)OCCCS1 (stereo unspecified) | inactive: 11.4% |
| O=C(Nc1cc([As](=O)(O)O)ccc1O)c1ccccc1 | inactive: 11.4% |
| O=[N+]([O-])c1ncn(CCn2ncnc2[N+](=O)[O-])n1 | inactive: -0.917% |
| CC(C)(C)C(=O)NC(Sc1ccncn1)C(Cl)(Cl)Cl (stereo unspecified) | inactive: 0.038% |
| O=C(O)CNc1ccc([As](=O)(O)O)cc1 | inactive: -4.55% |
| O=[N+]([O-])c1cccc(NC2=NCC(CBr)S2)c1 (stereo unspecified) | inactive: 4.84% |
| COC(=O)C1(C)COP(=O)(Nc2ccccc2)OC1 (stereo unspecified) | inactive: 2.26% |
| CN(C)P(=O)(N(C)C)n1c(Nc2ccccc2)nnc1-c1ccccc1 | inactive: -0.503% |
| O=P(Nc1nc2ccc(Cl)cc2s1)(c1ccccc1)c1ccccc1 | inactive: -8.59% |
| O=C(O)c1ccccc1[As](=O)(O)O | inactive: 16.2% |
| CC(=O)Nc1ccc([As](=O)(O)O)cc1 | inactive: -2.62% |
| CCCC1OP(N)(=O)OCC1CC (stereo unspecified) | inactive: 12% |
| CCOP(=O)(Nc1ccccc1)OCC | inactive: 5.43% |
| Cc1cc(SC(NC(=O)c2ccc(F)cc2)C(Cl)(Cl)Cl)ncn1 (stereo unspecified) | inactive: -8.86% |
| CN(C(=O)Cc1ccc(Cl)c(Cl)c1)[C@H]1CCCC[C@@H]1N1CCCC1 | inactive: 0.792% |
| Cc1ccc(NP(=O)(Oc2ccccc2F)Oc2ccccc2F)nc1 | inactive: -1.96% |
| Nc1cccc2ccc([As](=O)(O)O)cc12 | inactive: 2.74% |
| CCN(N=Nc1nonc1N)c1nonc1N | inactive: -11.8% |
| CN(C(=O)Cc1ccc(Cl)c(Cl)c1)[C@H]1CCCC[C@H]1N1CCCC1 | inactive: -1.84% |
| Cc1ccc(N/C(=N/P(=O)(N2CCOCC2)N2CCOCC2)N2CCOCC2)cc1 | inactive: -1.22% |
| NC(=O)c1cc([N+](=O)[O-])cc([N+](=O)[O-])c1N | inactive: 5.46% |
| Clc1ccc(Cl)c(NC2=NCC(CBr)S2)c1 (stereo unspecified) | inactive: 5.28% |
| CN1CCCC(OC(=O)C(c2ccccc2)c2ccccc2)C1 (stereo unspecified) | inactive: 2.08% |

| Structure (SMILES) | inhibition |
| --- | --- |
| COc1ccccc1OP(=O)(Nc1ccc(C)cn1)Oc1ccccc1OC | inactive: 5.9% |
| Cc1ccc(OP(=O)(Nc2nccs2)Oc2ccc(C)cc2)cc1 | inactive: -2.9% |
| Oc1ccccc1CNc1ccccn1 | inactive: -1.27% |
| O=C(NC(Sc1ccncn1)C(Cl)(Cl)Cl)c1ccccc1 (stereo unspecified) | inactive: 5.62% |
| CC(C)CC(=O)NC(Sc1ccc(Cl)cc1)C(Cl)(Cl)Cl (stereo unspecified) | inactive: 6% |
| Nc1cc(N)c2nonc2c1[N+](=O)[O-] | inactive: 3.67% |
| Cc1c2c(nc3ccccc13)SC(C(Cl)Cl)C2 (stereo unspecified) | inactive: 9.61% |
| O=C(OC1CN2CCC1CC2)C12CC3CC(CC(C3)C1)C2 (stereo unspecified) | inactive: 4.42% |
| Cc1cc(=O)[nH]c(N[N+](=O)[O-])n1 | inactive: -24.6% |
| O=P1(N(CCCl)CCCl)Nc2ccccc2N1 | inactive: 13.4% |
| O=P1(N(CCCl)CCCl)OCCCN1CCCl (stereo unspecified) | inactive: -4.37% |
| COc1ccc2nc(NP(=O)(c3ccccc3)c3ccccc3)sc2c1 | inactive: 2.44% |
| COc1cc(I)ccc1[As](=O)(O)O | inactive: 4.43% |
| O=[N+]([O-])c1cc(Oc2ccc([N+](=O)[O-])cc2C(F)(F)F)cc([N+](=O)[O-])c1 | inactive: -9.16% |
| COc1ccc(N/C(=N/P(=O)(N2CCOCC2)N2CCOCC2)N2CCOCC2)cc1 | inactive: -2.32% |
| O=[As](O)(c1ccc(O)cc1)c1ccccc1O | inactive: 10.3% |
| C[As](=O)(O)c1cccc(C(=O)O)c1 | inactive: 8.37% |
| COc1cc(C(=O)NCC2(N3CCOCC3)CCCCC2)ccc1OCC(C)C | inactive: -16.3% |
| O=[N+]([O-])c1ccc(-c2cc([N+](=O)[O-])c(O)c([N+](=O)[O-])c2)cc1 | inactive: -5.5% |
| Cc1ccc(OP(=O)(Nc2ccc([N+](=O)[O-])cn2)Oc2ccc(C)cc2)cc1 | inactive: -3.59% |
| Cc1ccc2nc3c(c(C)c2c1)CC(C(Cl)Cl)S3 (stereo unspecified) | inactive: 1.85% |
| ClCCSc1nnc(-c2cccnc2)o1 | inactive: 3.13% |
| CC(C)c1ccc(OP(=O)(Nc2ccccn2)Oc2ccccc2F)cc1 (stereo unspecified) | inactive: 13.2% |
